Assay results taken from ChEMBL document CHEMBL4842390, “Amino-Heterocycle Tetrahydroisoquinoline CXCR4 Antagonists with Improved ADME Profiles via Late-Stage Buchwald Couplings” (ACS Med Chem Lett, 2021).

Amino acid sequences for entries named in this document (tags omitted).
UniProt P61073, whole entry: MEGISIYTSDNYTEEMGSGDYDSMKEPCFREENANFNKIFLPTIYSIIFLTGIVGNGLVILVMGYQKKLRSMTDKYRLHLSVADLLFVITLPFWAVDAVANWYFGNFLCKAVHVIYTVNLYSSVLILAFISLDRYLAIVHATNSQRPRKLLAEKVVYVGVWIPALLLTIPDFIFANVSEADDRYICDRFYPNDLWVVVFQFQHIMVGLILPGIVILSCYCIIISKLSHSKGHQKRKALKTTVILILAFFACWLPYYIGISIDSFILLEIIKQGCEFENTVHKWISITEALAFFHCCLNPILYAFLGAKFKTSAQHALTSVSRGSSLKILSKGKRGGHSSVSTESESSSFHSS

Molecular target: C-X-C chemokine receptor type 4 (Homo sapiens, UniProt P61073)
Experiment: Antagonist activity at CXCR4 receptor in human CCRF-CEM cells assessed as inhibition of SDF-1alpha-induced calcium release preincubated for 25 mins followed by SDF-1alpha addition and monitered for 90 sec
Type: functional, cell-based

NCCCCN(Cc1nc2ccccc2[nH]1)[C@H]1CCCc2cccnc21 [MAVORIXAFOR]
IC50: 5.18 nM
